Source: PubChem BioAssay
Compounds with a hit are over-represented: about 0.73% of the library has one in this group of screens.
RAD52 inh: blocks human RAD52 DNA annealing; recombinant RAD52 DNA annealing, FRET fluorescence; inhibition, % at 18.7 µM; AID 651710; 360,000 tested, 0.46% active;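 active = every replicate showing at least 50% inhibition; inconclusive = mean inhibition at least 50% but not in every replicate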
RAD54 branch: blocks human RAD54 Holliday junction branch migration; Q92698; FAM/BHQ fluorescence; inhibition, % at 10.4 µM; 360,000 tested, 0.14% active;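 active = mean normalized replicate activity at least 40 and at least half of replicates scoring 40 or more; inconclusive = only one of the two criteria met; inactive = mean below 40 and under half of replicates reaching 40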;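 also: inhibitors cause a drop in the FAM fluorescence signal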
E-selectin induc: E-selectin induction on HUVECs | HUVEC E-selectin immunofluorescence imaging; normalized: neutral wells 0, TNF-alpha wells 100 | P16581 | 260,000 tested, 0.37% active | activation, % at 7.58 µM;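 active = mean E-selectin-positive cell signal at least 10% of the positive control, reached in at least 60% of replicates, without over 20% cell loss; inconclusive = no rule given, readout overlaps actives, possibly toxicity-flagged; inactive = the rest, including those meeting only one limit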
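Read-out: % PE-positive cells | Test system: HUVEC | Doses: One compound dose added by pin transfer | Buffer or medium: EGM-2 over gelatin coat | Signal: Immunofluorescence imaging | Benchmarks: TNF-alpha, DMSO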
Yeast UUG start: modulators of start codon recognition fidelity in yeast; S. cerevisiae UUG-firefly luciferase reporter, luminescence/redox ratio; activity score, % at 18.7 µM; hit rate 0.13% among 350,000; AID 602363;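 active = replicate mean at a twofold rise or more, about +100% in these data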;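 note: firefly luciferase made from a UUG start codon reports start codon fidelity; reporter light over untreated wells divided by growth signal over untreated wells; some hits fall short of that in this replicate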
XiGFP reactiv: activators of X-chromosome reactivation in mouse fibroblasts | XiGFP mouse fibroblasts, % GFP-positive cells imaging, 3 d; cells co-treated with 5-aza-dC sensitizer; scaled so ellipticine positive control = 100% | activation, % at 7.58 µM | 360,000 tested, 0.055% active | AID 743238;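 active = mean normalized replicate activation at least 10% and every replicate at or above 10%; inconclusive = only one of the two criteria met; inactive = mean below 10% and not all replicates reach 10%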
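Material: XiGFP fibroblasts, SV40-immortalized; Buffer or medium: DMEM containing 5-aza-dC; Compound dosing: single point; Times: 3 days compound exposure.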
Rad54 DNA ctr: counter-screen for Rad54 inhibitors: DNA binding compounds. AID 651673. 460 tested, 8% active. AC50, µM (highest dose often 35 µM). shares compounds with RAD54 branch. Acridine orange-DNA displacement, fluorescence polarization, 20 min;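 active = signal drop giving an AC50 within twice the top valid tested concentration of each sample, actives reach about 35 µM in these data; inactive = activity opposite to expected, plus the rest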;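 also: polarization loss reports compound binding to salmon sperm DNA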
Numbers stand for hits; i = inactive; ? = inconclusive; nt = no result given.

SMILES	RAD52 inh	RAD54 branch	E-selectin induc	Yeast UUG start	XiGFP reactiv	Rad54 DNA ctr
C/C=C/c1ccc([C@H]2[C@@H](CO)N(C(=O)CC)[C@H]2CNC(=O)C2CC2)cc1	i	i	i	i	i	nt
CCOC(=O)c1c(C)n(-c2ccc(OC)cc2)c2ccc(O)c(CN(C)C)c12	i	?	nt	i	i	i
CCOC(=O)c1c(C)n(-c2ccc(C)cc2)c2ccc(O)c(CN(C)C)c12	i	i	nt	i	i	nt
CCN(CC)CCn1c2ccc(F)cc2c2nc(C)sc21	nt	?	nt	i	nt	i
COc1ccc(C(=O)CN2CCN(CCN3C(=O)c4cccc5cccc(c45)C3=O)CC2)cc1	i	64	nt	i	i	i
CO[C@@H]1CN(C)C(=O)c2cc(NC(=O)c3nc4ccccc4s3)ccc2OC[C@H](C)N(Cc2cncnc2)C[C@H]1C	i	i	i	nt	i	nt
COc1ccc(-c2cc(=O)oc3c(C)c(O)c(CN(C)C)cc23)cc1	nt	i	nt	i	nt	nt
Cc1c(O)c(CN(C)C)cc2c1oc(=O)c1ccccc12	i	?	i	i	i	i
Cc1noc(C)c1NC(=O)N(C)C[C@@H]1Oc2ccc(NC(=O)Cc3cn(C)c4ccccc34)cc2C(=O)N([C@H](C)CO)C[C@@H]1C	i	i	nt	i	i	nt
Cc1cc(C)n(-c2nc(NCCN(C)C)c3c4c(sc3n2)COC(C)(C)C4)n1	i	?	i	i	i	i
Cc1ccc2nc3c(cc(C(=O)NCCc4ccccc4)c(=N)n3CCN3CCOCC3)c(=O)n2c1	nt	i	nt	i	nt	nt
Cc1ccc2nc3c(cc(C(=O)NCCN4CCOCC4)c(=N)n3CCCN3CCOCC3)c(=O)n2c1	nt	66	nt	i	nt	i
CCOc1cc2[nH]c(=O)n(Cc3ccc(C(=O)NCCCN4CCC(C)CC4)cc3)c(=O)c2cc1OCC	i	60	i	i	i	i
CN(C)CCCNC(=O)[C@@H]1[C@@H](CO)[C@@H]2Cn3c(ccc(-c4cccc(F)c4)c3=O)[C@@H]2N1C	i	i	i	nt	i	nt
CCN(CC)CCNc1ccc(CO)c2oc3ccccc3c(=O)c12	i	80	nt	i	i	i
O=c1cc(NCCO)c2ccccc2o1	nt	i	nt	i	nt	nt
COc1ccccc1NC(=O)N1CC(=O)N2[C@H](CO)[C@H](c3ccc(C#CC4CC4)cc3)[C@H]2C1	i	nt	i	nt	i	nt
C[C@@H]1CN([C@H](C)CO)C(=O)c2cc(C3=CCCC3)cnc2O[C@@H]1CN(C)C(=O)c1ccncc1	i	i	i	i	i	nt
CN(C)Cc1cc2ccccc2c2c1COC2	i	i	i	i	i	nt
Cc1cc2ccc3ccccc3c2cc1CN(C)C	i	52	nt	i	i	i
COc1ccc2c3c(n(C)c2c1)[C@@H](CO)N(S(C)(=O)=O)CC31CCN(Cc2cncnc2)CC1	i	nt	i	nt	i	nt
Cc1cccc(Nc2nc(N3CCN(C)CC3)nc(N)c2[N+](=O)[O-])c1	i	nt	nt	nt	i	nt
CCN1CCN(c2nc(N)c([N+](=O)[O-])c(Nc3cccc(C)c3)n2)CC1	i	?	i	i	i	i
O=C(CS(=O)(=O)c1ccccc1)Nc1ccc(Br)cn1	nt	?	nt	i	i	i
CNC[C@H]1OCCCC[C@@H](C)Oc2ccc(NC(=O)CCC(F)(F)F)cc2C(=O)N([C@H](C)CO)C[C@@H]1C	i	i	i	i	i	nt
SMILES	RAD52 inh	RAD54 branch	E-selectin induc	Yeast UUG start	XiGFP reactiv	Rad54 DNA ctr
COc1cccc2c1-c1c(O)cccc1C2=O	i	?	nt	i	i	i
COc1ccccc1O	i	i	i	i	i	nt
CS(=O)(=O)Nc1ccc2c(c1)[C@H]1C[C@@H](CC(=O)NCc3ccncc3)O[C@H](CO)[C@H]1O2	i	i	i	i	i	nt
COc1ccc2nc(C)cc(Nc3ccc(C)cc3)c2c1	i	57	i	i	i	i
COc1ccc2nc(C)cc(Nc3ccc(N4CCOCC4)cc3)c2c1	nt	?	nt	i	nt	i
Cc1ccc(Nc2cc(C)nc3c(C)cccc23)cc1	i	?	i	i	i	i
COc1ccc(Nc2cc(C)nc3ccccc23)cc1	i	i	nt	i	nt	nt
C[C@@H]1CCCCO[C@H](CN(C)S(=O)(=O)c2ccc(Cl)cc2)[C@H](C)CN([C@@H](C)CO)C(=O)c2cc(NC(=O)NC3CCCCC3)ccc2O1	i	i	i	i	i	nt
Cc1ccc(S(=O)(=O)CCSc2ccc(C(F)(F)F)cn2)cc1	i	?	i	i	i	i
